Sequences of proteins named here, by UniProt entry; tags and fusion partners are left off.
UniProt P31389, whole entry, looked up: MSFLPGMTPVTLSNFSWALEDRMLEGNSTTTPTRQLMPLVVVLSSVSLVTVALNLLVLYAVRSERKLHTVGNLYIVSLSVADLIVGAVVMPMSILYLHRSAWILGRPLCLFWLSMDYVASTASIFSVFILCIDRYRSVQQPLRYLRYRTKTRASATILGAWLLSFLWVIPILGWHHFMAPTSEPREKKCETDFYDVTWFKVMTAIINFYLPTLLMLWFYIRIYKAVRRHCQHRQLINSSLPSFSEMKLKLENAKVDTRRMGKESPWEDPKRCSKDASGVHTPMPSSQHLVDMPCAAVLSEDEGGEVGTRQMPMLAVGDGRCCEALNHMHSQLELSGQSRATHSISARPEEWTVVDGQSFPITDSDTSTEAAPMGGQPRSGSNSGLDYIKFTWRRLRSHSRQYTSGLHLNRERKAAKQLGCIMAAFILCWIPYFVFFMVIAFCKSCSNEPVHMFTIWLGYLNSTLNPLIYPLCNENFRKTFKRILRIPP

In ChEMBL document CHEMBL1122877, “New antihistaminic N-heterocyclic 4-piperidinamines. 1. Synthesis and antihistaminic activity of N-(4-piperidinyl)-1H-benzimidazol-2-amines” (1985):

Each compound was assayed against Histamine H1 receptor (Cavia porcellus) (UniProt P31389) (assay: In vitro inhibition of histamine(H1) induced contraction of guinea pig ileum.).
Format: functional, tissue-based
How it was run: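 Isolated guinea pig ileum in a bath. Cumulative histamine curves every 5 min, logarithmically increasing doses (5.4 × 10^-8, 1.6 × 10^-7, 5.4 × 10^-7 M, ...) until maximal contraction. Repeated after 5 min antagonist contact, then washout and two further curves. Highest test dose normally 0.04 mg/L. A10 = antagonist concentration giving a 10-fold rightward shift of the histamine curve.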

| Structure (SMILES) | A10 |
| --- | --- |
| COc1ccccc1Cn1c(N(C)C2CCN(CCc3ccccc3)CC2)nc2ccccc21 | 0.0063 mg/L |
| Oc1nc2ccccc2n1CCN1CCC(Nc2nc3ccccc3n2Cc2ccccc2)CC1 | 0.025 mg/L |
| Fc1ccc(Cn2c(NC3CCN(CCc4ccccc4)CC3)nc3ccccc32)cc1 | 0.0063 mg/L |
| CCCCCn1c(NC2CCN(CCc3ccccc3)CC2)nc2ccccc21 | 0.011 mg/L |
| Cn1c(NC2CCN(CCc3ccccc3)CC2)nc2ccccc21 | 0.005 mg/L |
| Cn1c(NC2CCN(CCn3nnn(-c4ccccc4)c3=O)CC2)nc2ccccc21 | 0.02 mg/L |
| c1ccc(CCN2CCC(Nc3nc4ccccc4n3CCc3ccccc3)CC2)cc1 | 0.0075 mg/L |
| Fc1ccc(CN2CCC(Nc3nc4ccccc4n3Cc3ccccc3)CC2)cc1 | 0.01 mg/L |
| O=C(CCCN1CCC(Nc2nc3ccccc3n2Cc2ccccc2)CC1)c1ccc(F)cc1 | 0.025 mg/L |
| c1ccc(Cn2c(NC3CCN(CCc4cccs4)CC3)nc3ccccc32)cc1 | 0.0063 mg/L |
| CC(c1ccccc1)N1CCC(Nc2nc3ccccc3n2Cc2ccccc2)CC1 (centres undefined) | 0.0063 mg/L |
| CCn1c(NC2CCN(CCC(C#N)(c3ccccc3)c3ccccc3)CC2)nc2ccccc21 | > 0.04 mg/L |
| O=c1[nH]c2ccccc2n1CCCN1CCN(C(c2ccccc2)c2ccccc2)CC1 [OXATOMIDE] | 0.014 mg/L |
| c1ccc(Cn2c(NC3CCN(CCOc4ccccc4)CC3)nc3ccccc32)cc1 | 0.01 mg/L |
| Clc1ccccc1Cn1c(NC2CCN(CCc3ccccc3)CC2)nc2ccccc21 | 0.01 mg/L |
| CCn1c(N(Cc2ccccc2)C2CCN(CCc3ccccc3)CC2)nc2ccccc21 | 0.016 mg/L |
| c1ccc(CCN2CCC(N(c3nc4ccccc4[nH]3)C3CC3)CC2)cc1 | > 0.04 mg/L |
| CC(c1ccc(F)cc1)n1c(NC2CCN(CCc3ccccc3)CC2)nc2ccccc21 (centres undefined) | > 0.01 mg/L |
| N#CC1(c2ccccc2)CCC(N2CCC(Nc3nc4ccccc4n3Cc3ccccc3)CC2)CC1 (centres undefined) | 0.025 mg/L |
| CCCn1c(NC2CCN(CCc3ccccc3)CC2)nc2ccccc21 | 0.02 mg/L |
| Brc1ccc(Cn2c(NC3CCN(CCc4ccccc4)CC3)nc3ccccc32)cc1 | 0.025 mg/L |
| c1ccc(CCN2CCC(N(Cc3ccccc3)c3nc4ccccc4n3Cc3ccccc3)CC2)cc1 | > 0.04 mg/L |
| c1ccc(Cn2c(NC3CCN(C(c4ccccc4)c4ccccc4)CC3)nc3ccccc32)cc1 | 0.04 mg/L |

| Structure (SMILES) | A10 |
| --- | --- |
| CCCCn1c(N(C)C2CCN(CCc3ccccc3)CC2)nc2ccccc21 | 0.0063 mg/L |
| CCn1c(NC2CCN(C/C=C/c3ccccc3)CC2)nc2ccccc21 | > 0.04 mg/L |
| CCn1c(NC2CCN(CC3COc4ccccc4O3)CC2)nc2ccccc21 (centres undefined) | > 0.04 mg/L |
| c1ccc(CCCN2CCC(Nc3nc4ccccc4n3Cc3ccccc3)CC2)cc1 | 0.01 mg/L |
| C(=C\c1ccccc1)/CN1CCC(Nc2nc3ccccc3n2Cc2ccccc2)CC1 | 0.025 mg/L |
| c1ccc(CCN2CCC(Nc3nc4ccccc4[nH]3)CC2)cc1 | 0.01 mg/L |
| CCN(c1nc2ccccc2[nH]1)C1CCN(CCc2ccccc2)CC1 | 0.029 mg/L |
| CCn1c(NC2CCN(CCCC(=O)c3ccc(F)cc3)CC2)nc2ccccc21 | 0.01 mg/L |
| Cn1c(NC2CCN(CCCC(c3ccc(F)cc3)c3ccc(F)cc3)CC2)nc2ccccc21 | > 0.04 mg/L |
| CCn1c(NC2CCN(C(C)C)CC2)nc2ccccc21 | > 0.04 mg/L |
| c1ccc(CCN2CCC(Nc3nc4ccccc4n3Cc3ccccn3)CC2)cc1 | 0.0063 mg/L |
| OC(COc1ccccc1)CN1CCC(Nc2nc3ccccc3n2Cc2ccccc2)CC1 (centres undefined) | 0.03 mg/L |
| Cc1ccc(Cn2c(N(C)C3CCN(CCc4ccccc4)CC3)nc3ccccc32)cc1 | 0.0063 mg/L |
| CCOc1ccc(CCN2CCC(Nc3nc4ccccc4n3Cc3ccccc3)CC2)cc1 | 0.0063 mg/L |
| CC(C)N(c1nc2ccccc2n1Cc1ccccc1)C1CCN(CCc2ccccc2)CC1 | > 0.01 mg/L |
| CC(Cn1c(NC2CCN(CCc3ccccc3)CC2)nc2ccccc21)c1ccccc1 (centres undefined) | > 0.04 mg/L |
| CCCCN1CCC(Nc2nc3ccccc3n2Cc2ccccc2)CC1 | 0.0063 mg/L |
| Cc1ccc(Cn2c(NC3CCN(CCc4ccccc4)CC3)nc3ccccc32)cc1 | 0.02 mg/L |
| c1ccc(CN2CCC(Nc3nc4ccccc4n3Cc3ccccc3)CC2)cc1 | 0.01 mg/L |
| CC(C)n1c(NC2CCN(CCc3ccccc3)CC2)nc2ccccc21 | > 0.04 mg/L |
| Oc1nc2ccccc2n1CCCN1CCC(Nc2nc3ccccc3n2Cc2ccccc2)CC1 | > 0.01 mg/L |
| Fc1ccc(C(CCCN2CCC(Nc3nc4ccccc4n3Cc3ccccc3)CC2)c2ccc(F)cc2)cc1 | > 0.04 mg/L |
| CN(c1nc2ccccc2n1Cc1ccc(Br)cc1)C1CCN(CCc2ccccc2)CC1 | 0.04 mg/L |

| Structure (SMILES) | A10 |
| --- | --- |
| CCn1nnn(CCN2CCC(Nc3nc4ccccc4n3Cc3ccccc3)CC2)c1=O | 0.025 mg/L |
| Clc1ccc(CCN2CCC(Nc3nc4ccccc4n3Cc3ccccc3)CC2)cc1 | 0.02 mg/L |
| CCN(c1nc2ccccc2n1Cc1ccccc1)C1CCN(CCc2ccccc2)CC1 | 0.017 mg/L |
| CCCCCCCn1c(NC2CCN(CCc3ccccc3)CC2)nc2ccccc21 | > 0.04 mg/L |
| CN(C)C(=O)C(CCN1CCC(Nc2nc3ccccc3n2Cc2ccccc2)CC1)(c1ccccc1)c1ccccc1 | 0.04 mg/L |
| COc1ccc(CCN2CCC(Nc3nc4ccccc4n3Cc3ccccc3)CC2)cc1OC | > 0.01 mg/L |
| Cc1cccc(CCN2CCC(Nc3nc4ccccc4n3Cc3ccccc3)CC2)c1 | > 0.01 mg/L |
| COc1ccc(Cn2c(N(C)C3CCN(CCc4ccccc4)CC3)nc3ccccc32)cc1 | 0.01 mg/L |
| C=CCN1CCC(Nc2nc3ccccc3n2Cc2ccccc2)CC1 | 0.0063 mg/L |
| CN(c1nc2ccccc2n1Cc1ccccc1Cl)C1CCN(CCc2ccccc2)CC1 | 0.01 mg/L |
| c1ccc(CCN2CCC(Nc3nc4ccccc4n3C3CCCC3)CC2)cc1 | > 0.04 mg/L |
| CCn1c(NC2CCN(CCCC(c3ccc(F)cc3)c3ccc(F)cc3)CC2)nc2ccccc21 | 0.025 mg/L |
| FC(F)(F)c1cccc(CCN2CCC(Nc3nc4ccccc4n3Cc3ccccc3)CC2)c1 | > 0.04 mg/L |
| Fc1ccc(C(c2ccc(F)cc2)n2c(NC3CCN(CCc4ccccc4)CC3)nc3ccccc32)cc1 | > 0.04 mg/L |
| c1ccc(CCN2CCC(Nc3nc4ccccc4n3Cc3ccccc3)CC2)cc1 | 0.003 mg/L |
| COc1cccc(CCN2CCC(Nc3nc4ccccc4n3Cc3ccccc3)CC2)c1 | 0.0063 mg/L |
| CCCCn1c(NC2CCN(CCc3ccccc3)CC2)nc2ccccc21 | 0.0051 mg/L |
| CN1CCC(Nc2nc3ccccc3n2Cc2ccccc2)CC1 | 0.0025 mg/L |
| COc1ccccc1CCN1CCC(Nc2nc3ccccc3n2Cc2ccccc2)CC1 | 0.01 mg/L |
| c1ccc(Cn2c(NC3CCN(CCCOc4ccccc4)CC3)nc3ccccc32)cc1 | 0.01 mg/L |
| c1ccc(Cn2c(NC3CCN(CCC(c4ccccc4)c4ccccc4)CC3)nc3ccccc32)cc1 | 0.04 mg/L |
| CN(c1nc2ccccc2[nH]1)C1CCN(CCc2ccccc2)CC1 | 0.02 mg/L |
| COc1ccc(CCN2CCC(Nc3nc4ccccc4n3Cc3ccccc3)CC2)cc1 | > 0.01 mg/L |

| Structure (SMILES) | A10 |
| --- | --- |
| CCn1c(N(C(C)C)C2CCN(CCc3ccccc3)CC2)nc2ccccc21 | > 0.01 mg/L |
| CCCCCCn1c(NC2CCN(CCc3ccccc3)CC2)nc2ccccc21 | 0.025 mg/L |
| c1ccc(Cn2c(NC3CCN(CC4COc5ccccc5O4)CC3)nc3ccccc32)cc1 (centres undefined) | 0.01 mg/L |
| Fc1ccc(CCN2CCC(Nc3nc4ccccc4n3Cc3ccccc3)CC2)cc1 | 0.01 mg/L |
| CCn1c(NC2CCN(CCc3ccccc3)CC2)nc2ccccc21 | 0.0063 mg/L |
| Clc1ccc(Cn2c(NC3CCN(CCc4ccccc4)CC3)nc3ccccc32)cc1 | 0.01 mg/L |
| CCCN(c1nc2ccccc2n1Cc1ccccc1)C1CCN(CCc2ccccc2)CC1 | > 0.01 mg/L |
| CCCCN(c1nc2ccccc2[nH]1)C1CCN(CCc2ccccc2)CC1 | 0.03 mg/L |
| CCn1c(NC2CCN(CCC(C(=O)N(C)C)(c3ccccc3)c3ccccc3)CC2)nc2ccccc21 | > 0.04 mg/L |
| c1ccc(CCN2CCC(N(Cc3ccccc3)c3nc4ccccc4[nH]3)CC2)cc1 | 0.0076 mg/L |
| C=CCN1CCC(Nc2nc3ccccc3n2CC)CC1 | 0.04 mg/L |
| CN(c1nc2ccccc2n1Cc1ccc(Cl)cc1)C1CCN(CCc2ccccc2)CC1 | 0.0063 mg/L |
| Fc1ccccc1Cn1c(NC2CCN(CCc3ccccc3)CC2)nc2ccccc21 | 0.0063 mg/L |
| CN1CCC(Nc2nc3ccccc3n2C)CC1 | > 0.04 mg/L |
| CN(c1nc2ccccc2n1Cc1ccc(F)cc1)C1CCN(CCc2ccccc2)CC1 | 0.0063 mg/L |
| CN(c1nc2ccccc2n1Cc1ccccc1)C1CCN(CCc2ccccc2)CC1 | 0.005 mg/L |
| CC(c1ccccc1)n1c(NC2CCN(CCc3ccccc3)CC2)nc2ccccc21 (centres undefined) | 0.025 mg/L |
| COc1cc(CCN2CCC(Nc3nc4ccccc4n3Cc3ccccc3)CC2)cc(OC)c1OC | > 0.01 mg/L |
| c1ccc(Cn2c(NC3CCN(C4CCCCC4)CC3)nc3ccccc32)cc1 | 0.01 mg/L |
| CCn1c(N(C)C2CCN(CCc3ccccc3)CC2)nc2ccccc21 | 0.0025 mg/L |
